Experimental data as given in US8604206B2, “Compositions for preventing and/or treating degenerative disorders of the central nervous system” (Amicus Therapeutics, Inc., priority 2009, dated 2013).

Protein sequences, listed by entry. Tags and fused reporters are not part of them. Residues count along the entry.
UniProt P04062, 40-536: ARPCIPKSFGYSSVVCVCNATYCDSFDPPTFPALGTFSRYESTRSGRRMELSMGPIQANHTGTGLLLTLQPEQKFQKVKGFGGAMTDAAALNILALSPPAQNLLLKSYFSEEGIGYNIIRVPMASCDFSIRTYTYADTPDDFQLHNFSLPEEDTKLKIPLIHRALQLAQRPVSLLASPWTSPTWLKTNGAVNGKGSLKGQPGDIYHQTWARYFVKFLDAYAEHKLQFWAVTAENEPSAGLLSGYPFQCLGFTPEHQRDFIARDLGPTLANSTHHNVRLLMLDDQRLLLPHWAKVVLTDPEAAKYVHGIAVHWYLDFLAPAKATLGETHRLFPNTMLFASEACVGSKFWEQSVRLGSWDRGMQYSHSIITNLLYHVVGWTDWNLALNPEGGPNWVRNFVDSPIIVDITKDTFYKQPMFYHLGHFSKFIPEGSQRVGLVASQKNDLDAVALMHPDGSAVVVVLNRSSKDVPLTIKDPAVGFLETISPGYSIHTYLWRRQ

How the values were obtained:
[1] = target: GCase (Homo sapiens (Human), UniProt P04062); assay: GCase activity enhancement (EC50, Emax) of Table 2B; type: cell-based
[2] = target: lysosomal GCase (Homo sapiens (Human), UniProt P04062); assay: In situ lysosomal GCase inhibition and washout assay in fibroblasts from a normal subject; type: cell-based; conditions: 16-24 hours with compound, PFBFDβGlu substrate
Method: The effect of the novel compounds of the present invention on lysosomal GCase activity was assayed in situ using fibroblasts established from a normal subject. Cells seeded in 48-well plates were incubated with the indicated concentrations of compound for 16-24 hours. For the dose-response assays, cells were incubated with the in situ substrate 5-(pentafluorobenzoylamino)fluorescein di-β-D-glucopyranoside (PFBFDβGlu) for 1 hour and subsequently lysed to determine the extent of substrate hydrolysis in the presence of compound. […] Inhibition was determined as the ratio of activity in the presence of compound to that in the absence of compound. […] Cells were washed extensively and incubated in drug-free medium to allow net compound efflux from cells. Cells were then tested for lysosomal GCase activity at 2 hour intervals over a total period of 8 hours following compound removal. The increase in activity over time was fitted with a single exponential function to determine the compound's washout time.

Cl.O[C@H]1[C@H](O)CNC[C@@H]1C(F)F [Cmpd 6, (3R,4R,5S)-5-(Difluoromethyl)piperidine 3,4-diol Hydrochloride]
EC50 [1]: 18 ± 8 nM | IC50 [2]: 408 ± 46 nM
